Results reported in US20230295159A1, “ATX INHIBITOR, AND PREPARATION METHOD THEREFOR AND USE THEREOF” (SUZHOU ARK BIOPHARMACEUTICAL CO., LTD., priority 2020, published 2023).

Test system: Chinese hamster ovary cells (CHO-WBL)
Test: In vitro micronucleus assay with Chinese hamster ovary cells
Description: In the major micronucleus assay, CHO-WBL cells were exposed to at least 3 concentrations of the test object, while vehicle control group and positive control group were set up, with 2 replicated wells for each dose group. In inactivated test system, the administration lasted for 3 and 24 hours, and in S9 activated test system, the exposure to the test object lasted for 3 hours.
When choosing the highest dose for micronucleus frequency assay, the cytotoxicity of dose group of the test object should not substantially exceed 50% of that of the corresponding vehicle control group.
On the premise that the test is valid, the test results are evaluated according to the following criteria:
If the test object simutaneously meets the following criteria, it can be considered as positive:
A significant increase in micronucleus frequency is observed in one or more concentration groups.
If none of the above three points is met, the test object can be considered as negative.

Mitomycin C
% binuclear cells containing micronucleus (3-hour administration without metabolic activation, 0.3 µg/ml): 11.85%
% binuclear cells containing micronucleus (24-hour administration without metabolic activation, 0.1 µg/ml): 22.8%
